Source: US6514942B1, “Methods and compositions for stimulating T-lymphocytes” (The Board of Regents, The University of Texas System, priority 1995, dated 2003)
Marks after values point to notes of the source that are not given here.

System: CTL-16
Assay: Recognition of HER-2 peptides by ovarian tumor associated CTL (lysis of peptide-sensitized targets)
Format: cell-based, human

`CC[C@H](C)[C@H](NC(=O)[C@@H](N)CCCCN)C(=O)N[C@@H](Cc1ccccc1)C(=O)NCC(=O)N[C@@H](CO)C(=O)N[C@@H](CC(C)C)C(=O)N[C@@H](C)C(=O)N[C@@H](Cc1ccccc1)C(=O)N[C@@H](CC(C)C)C(=O)O` [Peptide E75] was tested, and the “% of C85 (target lysis by CTL in the presence of peptide as % of positive control C85)” value was >10.00^c % of C85.
